# From ChEMBL document CHEMBL4808215, “Discovery of Selective Small-Molecule Inhibitors for the ENL YEATS Domain” (J Med Chem, 2021)
# Target: T1, Protein AF-9 (Homo sapiens, UniProt P42568)
# T1 sequence (P42568 whole entry): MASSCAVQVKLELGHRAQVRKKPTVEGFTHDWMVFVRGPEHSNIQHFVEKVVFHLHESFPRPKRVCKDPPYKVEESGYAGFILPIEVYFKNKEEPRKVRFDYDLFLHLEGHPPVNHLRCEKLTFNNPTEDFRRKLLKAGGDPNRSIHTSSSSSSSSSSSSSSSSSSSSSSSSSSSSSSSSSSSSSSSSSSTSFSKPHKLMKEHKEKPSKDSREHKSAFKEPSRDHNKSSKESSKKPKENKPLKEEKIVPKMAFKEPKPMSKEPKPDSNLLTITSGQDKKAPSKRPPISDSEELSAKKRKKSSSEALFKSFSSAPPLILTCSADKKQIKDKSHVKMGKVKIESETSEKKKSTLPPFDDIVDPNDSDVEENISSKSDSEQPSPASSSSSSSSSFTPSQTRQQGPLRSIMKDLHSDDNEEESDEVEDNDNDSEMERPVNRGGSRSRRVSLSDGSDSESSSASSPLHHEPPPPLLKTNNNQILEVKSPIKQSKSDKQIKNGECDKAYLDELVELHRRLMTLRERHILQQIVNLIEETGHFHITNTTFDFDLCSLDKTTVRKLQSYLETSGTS
# Experiment: Inhibition of human His-AF9 YEATS domain and biotinylated H3K9ac peptide interaction by AlphaScreen assay
# Procedure, shortened: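 His-tagged YEATS domains were expressed in E. coli Rosetta-2 (DE3) pLysS and purified on Ni-NTA. Partners were biotinylated peptide on streptavidin donor and Ni2+-chelate acceptor beads: AF9 30 nM with H3K9ac, GAS41 100 nM with H3K27ac, YEATS2 100 nM with H3K27cr. Peptides at 30 nM, buffer 50 mM HEPES pH 7.4, 100 mM NaCl, 0.1% BSA, 0.05% CHAPS. Thirteen-point 3-fold series from 54 μM to 0.1 nM, 4–6 replicates, signal normalised to no-compound control, four-parameter fit.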
smiles,measurement,value
O=C(NCc1ccc(CN2CCC2)cc1)c1ccc2nncn2c1,IC50,984 nM
